Test results as given in ChEMBL document CHEMBL5375987, “Structural Fusion of Natural and Synthetic Ligand Features Boosts RXR Agonist Potency” (J Med Chem, 2023).

By UniProt entry, the sequences of proteins in these tests, tags left out. Where a name states a change or a piece, a line headed by the entry shows the natural chain unless it says otherwise.
UniProt Q92570: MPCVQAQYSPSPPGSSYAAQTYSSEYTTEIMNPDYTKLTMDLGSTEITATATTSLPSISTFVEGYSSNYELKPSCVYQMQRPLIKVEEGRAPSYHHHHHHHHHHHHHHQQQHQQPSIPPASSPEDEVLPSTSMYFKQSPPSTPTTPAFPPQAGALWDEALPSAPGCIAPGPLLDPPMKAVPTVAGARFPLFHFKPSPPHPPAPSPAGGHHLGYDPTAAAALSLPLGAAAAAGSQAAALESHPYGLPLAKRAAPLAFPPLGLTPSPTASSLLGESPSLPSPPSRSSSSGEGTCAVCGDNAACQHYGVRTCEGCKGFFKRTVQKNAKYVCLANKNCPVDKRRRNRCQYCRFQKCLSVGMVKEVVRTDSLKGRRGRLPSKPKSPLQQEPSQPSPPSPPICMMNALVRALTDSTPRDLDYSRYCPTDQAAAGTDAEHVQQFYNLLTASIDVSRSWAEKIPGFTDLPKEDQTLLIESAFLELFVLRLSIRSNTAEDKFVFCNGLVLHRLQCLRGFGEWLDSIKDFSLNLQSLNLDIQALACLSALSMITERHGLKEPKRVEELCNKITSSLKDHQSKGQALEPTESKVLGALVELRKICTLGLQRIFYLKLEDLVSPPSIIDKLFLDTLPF

Columns and labels:
[1] = target: T1, Peroxisome proliferator-activated receptor delta (Homo sapiens) (UniProt Q03181); test: Agonist activity at NR1C2 (unknown origin) at 1 uM
T1 sequence (whole entry): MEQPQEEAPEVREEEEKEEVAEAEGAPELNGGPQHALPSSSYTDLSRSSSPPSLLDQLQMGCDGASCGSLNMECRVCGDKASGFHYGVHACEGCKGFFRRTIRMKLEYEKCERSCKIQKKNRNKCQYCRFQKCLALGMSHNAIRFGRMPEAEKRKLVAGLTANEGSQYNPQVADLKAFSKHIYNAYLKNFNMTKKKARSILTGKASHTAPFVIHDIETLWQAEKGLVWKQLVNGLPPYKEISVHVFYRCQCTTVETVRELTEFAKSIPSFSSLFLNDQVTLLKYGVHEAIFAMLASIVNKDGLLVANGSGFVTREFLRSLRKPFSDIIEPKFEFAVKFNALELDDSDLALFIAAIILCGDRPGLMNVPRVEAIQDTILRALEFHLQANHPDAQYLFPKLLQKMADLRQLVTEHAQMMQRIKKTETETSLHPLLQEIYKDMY

[2] = target: T2, Nuclear receptor ROR-beta (Homo sapiens) (UniProt Q92753); test: Inverse agonist activity at NR1F2 (unknown origin) at 1 uM
T2 sequence (whole entry): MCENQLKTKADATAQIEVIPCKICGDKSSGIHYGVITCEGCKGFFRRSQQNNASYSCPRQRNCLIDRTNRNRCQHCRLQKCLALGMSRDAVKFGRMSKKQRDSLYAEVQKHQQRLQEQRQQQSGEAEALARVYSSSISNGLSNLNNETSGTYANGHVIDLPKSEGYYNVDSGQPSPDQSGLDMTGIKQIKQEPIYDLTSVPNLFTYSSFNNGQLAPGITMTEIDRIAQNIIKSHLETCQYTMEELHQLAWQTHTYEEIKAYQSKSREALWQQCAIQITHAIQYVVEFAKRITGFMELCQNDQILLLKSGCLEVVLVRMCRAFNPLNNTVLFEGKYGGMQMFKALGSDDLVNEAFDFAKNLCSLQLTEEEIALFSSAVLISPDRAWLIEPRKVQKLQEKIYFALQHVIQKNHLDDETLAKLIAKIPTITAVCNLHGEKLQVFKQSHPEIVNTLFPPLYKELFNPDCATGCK

[3] = target: T3, Nuclear receptor subfamily 2 group C member 1 (Homo sapiens) (UniProt P13056); test: Inverse agonist activity at NR2C1 (unknown origin) at 1 uM
T3 sequence (whole entry): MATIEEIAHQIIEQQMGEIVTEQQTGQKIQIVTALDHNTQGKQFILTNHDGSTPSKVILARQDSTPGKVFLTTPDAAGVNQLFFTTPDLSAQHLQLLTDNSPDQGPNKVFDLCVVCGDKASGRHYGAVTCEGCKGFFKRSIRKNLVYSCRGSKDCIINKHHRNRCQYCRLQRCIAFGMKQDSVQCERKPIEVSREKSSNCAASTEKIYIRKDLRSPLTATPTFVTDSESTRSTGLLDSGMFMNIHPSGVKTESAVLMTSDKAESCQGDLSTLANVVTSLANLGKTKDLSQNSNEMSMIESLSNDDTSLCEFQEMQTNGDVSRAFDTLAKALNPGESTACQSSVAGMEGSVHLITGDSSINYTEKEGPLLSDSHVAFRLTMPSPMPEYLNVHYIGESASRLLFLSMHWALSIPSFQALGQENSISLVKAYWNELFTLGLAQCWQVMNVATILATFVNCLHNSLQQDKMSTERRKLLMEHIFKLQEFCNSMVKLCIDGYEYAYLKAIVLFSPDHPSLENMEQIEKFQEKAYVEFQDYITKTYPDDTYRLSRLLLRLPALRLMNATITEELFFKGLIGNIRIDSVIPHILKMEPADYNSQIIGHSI

[4] = target: Nuclear receptor subfamily 4 group A member 3 (Homo sapiens) (UniProt Q92570); test: Inverse agonist activity at NR4A3 (unknown origin) at 1 uM
[5] = target: T4, Nuclear receptor subfamily 1 group D member 1 (Homo sapiens) (UniProt P20393); test: Agonist activity at NR1D1 (unknown origin) at 1 uM
T4 sequence (whole entry): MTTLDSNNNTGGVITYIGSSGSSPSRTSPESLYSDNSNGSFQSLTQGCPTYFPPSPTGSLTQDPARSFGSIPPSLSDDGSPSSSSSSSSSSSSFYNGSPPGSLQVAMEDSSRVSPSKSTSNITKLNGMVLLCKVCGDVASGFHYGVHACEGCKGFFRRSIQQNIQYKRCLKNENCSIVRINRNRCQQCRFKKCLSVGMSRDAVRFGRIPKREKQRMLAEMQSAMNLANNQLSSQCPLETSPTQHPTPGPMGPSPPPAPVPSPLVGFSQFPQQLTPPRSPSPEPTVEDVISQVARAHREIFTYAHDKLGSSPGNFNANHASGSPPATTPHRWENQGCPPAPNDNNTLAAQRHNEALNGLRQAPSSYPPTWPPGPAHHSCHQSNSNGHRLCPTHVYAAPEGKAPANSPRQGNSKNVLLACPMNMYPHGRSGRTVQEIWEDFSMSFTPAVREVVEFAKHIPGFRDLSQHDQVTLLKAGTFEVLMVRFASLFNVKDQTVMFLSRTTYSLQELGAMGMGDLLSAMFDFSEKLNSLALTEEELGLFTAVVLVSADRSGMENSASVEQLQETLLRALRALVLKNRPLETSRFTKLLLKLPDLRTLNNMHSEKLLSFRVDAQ

[6] = target: T5, Bile acid receptor (Homo sapiens) (UniProt Q96RI1); test: Agonist activity at NR1H4 (unknown origin) at 1 uM
T5 sequence (whole entry): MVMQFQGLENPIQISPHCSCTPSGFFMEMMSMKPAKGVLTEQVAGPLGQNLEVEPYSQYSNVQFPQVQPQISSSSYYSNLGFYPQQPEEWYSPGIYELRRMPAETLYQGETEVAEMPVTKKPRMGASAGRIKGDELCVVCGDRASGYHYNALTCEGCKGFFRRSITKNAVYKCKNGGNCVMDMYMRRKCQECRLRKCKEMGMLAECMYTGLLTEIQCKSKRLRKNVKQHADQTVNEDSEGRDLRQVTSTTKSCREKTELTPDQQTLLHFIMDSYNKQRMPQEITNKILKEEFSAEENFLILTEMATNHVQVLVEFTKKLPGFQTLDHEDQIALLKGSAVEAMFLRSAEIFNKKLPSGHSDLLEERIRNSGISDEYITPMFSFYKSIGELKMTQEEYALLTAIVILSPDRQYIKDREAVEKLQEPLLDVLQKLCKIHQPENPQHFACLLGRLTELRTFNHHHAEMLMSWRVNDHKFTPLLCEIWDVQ

Measured: Activity

O=C(O)[C@@H]1C[C@H]1c1nc(-c2ccccc2)c(-c2cc(C(F)(F)F)cc(C(F)(F)F)c2)o1 (racemic)
inactive: all assays above

Activity calls are given as the source filed them.
